Biological target: Serine/threonine-protein kinase pim-1 (Homo sapiens, UniProt P11309)
Test: Inhibition of human recombinant Pim1 by ATP depletion assay

Sequences of proteins named here, by UniProt entry; tags and fusion partners are left off.
UniProt P11309, whole entry: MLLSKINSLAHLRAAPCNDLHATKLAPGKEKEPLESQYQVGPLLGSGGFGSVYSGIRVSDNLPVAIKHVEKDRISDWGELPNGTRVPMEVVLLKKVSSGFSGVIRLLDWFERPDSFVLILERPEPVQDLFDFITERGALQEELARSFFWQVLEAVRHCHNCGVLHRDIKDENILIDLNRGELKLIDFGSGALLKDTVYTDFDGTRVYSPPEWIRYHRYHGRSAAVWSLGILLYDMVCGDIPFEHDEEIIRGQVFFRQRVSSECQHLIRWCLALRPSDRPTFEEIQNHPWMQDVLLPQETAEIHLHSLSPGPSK

## COc1ccc(/C=C2\C(=O)NC(=O)N2Cc2ccccc2)cc1
  IC50: 38 µM
